Sequences of proteins named here, by UniProt entry; tags and fusion partners are left off. Residues count along the entry.
UniProt P22303, 32-614 limits assumed: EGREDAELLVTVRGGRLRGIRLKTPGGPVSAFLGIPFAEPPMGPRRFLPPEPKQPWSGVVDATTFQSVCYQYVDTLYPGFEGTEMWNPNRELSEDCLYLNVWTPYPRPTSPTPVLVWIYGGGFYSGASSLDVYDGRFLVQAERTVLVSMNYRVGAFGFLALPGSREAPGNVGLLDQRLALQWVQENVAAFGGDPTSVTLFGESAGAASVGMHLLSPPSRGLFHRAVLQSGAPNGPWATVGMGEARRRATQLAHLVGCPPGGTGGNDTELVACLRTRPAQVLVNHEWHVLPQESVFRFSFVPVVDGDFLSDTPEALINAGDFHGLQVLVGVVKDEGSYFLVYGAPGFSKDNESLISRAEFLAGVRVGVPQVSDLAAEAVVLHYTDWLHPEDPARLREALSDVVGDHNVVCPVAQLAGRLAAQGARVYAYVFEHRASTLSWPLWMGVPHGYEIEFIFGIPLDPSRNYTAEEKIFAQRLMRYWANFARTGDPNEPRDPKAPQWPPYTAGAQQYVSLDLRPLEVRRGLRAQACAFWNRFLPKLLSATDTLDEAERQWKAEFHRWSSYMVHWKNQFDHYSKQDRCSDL

According to ChEMBL document CHEMBL4270596, “Discovery of a potent non-oxime reactivator of nerve agent inhibited human acetylcholinesterase” (2018):

Biological target: Acetylcholinesterase (Homo sapiens, UniProt P22303)
Assay: Inhibition of AChE in human erythrocytes using acetylthiocholine as substrate measured for 1 min

## CCOP(=O)(OCC)Oc1ccc(N)cc1CN1CCCC1
  Ki: 1.9 ×10⁴ /M/min

Some compounds may have been tested in ways that are not shown here.
